# Tested on: peripheral blood mononuclear cells (PBMC)
# Test: Lymphocyte proliferation (3H-thymidine incorporation) in PBMC
# Assay type: cell-based, human
# Details: added to cell cultures before PHA stimulation with TTA; anti-IL-10 5 μg/mL, IL-2 10 ng/mL; FIG. 4
# Protocol: Blood donor (n=5) peripheral blood mononuclear cells (PBMC) were obtained from heparinized blood by Isopaque-Ficoll (Lymphoprep, Nycomed Pharma AS, Oslo, Norway) gradient centrifugation within 1 hour after blood sampling. PBMC were resuspended in RPMI 1640 with 2 mM L-glutamine and 25 mM HEPES buffer (Gibco BRL, Paisley, UK) supplemented with 10% heat inactivated pooled human AB^+ serum (culture medium). The endotoxin level in culture medium, reagents and stimulants was <10 pg/mL (Quantitative chromogenic limulus amebocyte lysate test, BioWhittaker, Inc., Walkerswille, Md.).
# PMNC (10^6 cells/mL) were incubated in flat-bottomed, 96-well microtiter trays (200 μL/well; Costar, Cambridge, Mass.) in medium alone or with phytohemagglutinin (PHA; Murex Diagnostics Ltd, Dartford, UK; final concentration 1:100) either alone or with different concentrations of TTA. Bovine serum albumin (BSA, Calbiochem, La Jolla, Calif.) was used as a negative control for TTA (vehicle). […] After 48 hours, cells were pulsed with 1 μCi of ^3H-thymidine (Amersham International plc., Little Chalfont, UK), and 16 hours later cultures were harvested onto glass filter strips, using an automated multisampler harvester (Skatron, Lier, Norway). ^3H-thymidine incorporation was determined by liquid scintillation counting as counts per minute (cpm).
substance,measurement,value
IL-2: recombinant human IL-2 (R&D Systems),effect on the TTA mediated inhibition of PHA stimulated PBMC proliferation,only a modest counteracting effect

# — patent publication US20050165103A1, “Fatty acid analogues for the treatment of inflammatory and autoimmune disorders” (priority 2000, published 2005)
